Binding of CDR-mutated scFvs to a peptide of the spike HR2 region

Values reported by Engelhart et al. 2022, doi:10.1038/s41597-022-01779-4 (FLAb copy).

Target: peptide PDVDLGDISGINAS, taken from heptad repeat 2 (HR2) of SARS-CoV-2 spike.

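The starting antibody came from a phage panning campaign against this peptide. In library AAYL49, one, two or three CDR residues were substituted; doubles and triples were drawn at random. The assay is AlphaSeq: two haploid yeast populations carry antibody and antigen on their surface. Pairs that bind mate more often; barcode pairs of the diploids are counted by sequencing. A regression on co-assayed BCL2-family reference pairs converts the normalised counts of each replicate to an apparent Kd. There are three technical replicates.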

Parent scFv Ab-14: VH joined to VL by a 15-residue (Gly4Ser)3 linker. Changes lie in the heavy chain CDRs alone.
VH: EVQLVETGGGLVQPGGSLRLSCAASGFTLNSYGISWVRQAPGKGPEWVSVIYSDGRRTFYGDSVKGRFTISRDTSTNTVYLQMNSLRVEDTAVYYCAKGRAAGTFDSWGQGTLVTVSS
VL: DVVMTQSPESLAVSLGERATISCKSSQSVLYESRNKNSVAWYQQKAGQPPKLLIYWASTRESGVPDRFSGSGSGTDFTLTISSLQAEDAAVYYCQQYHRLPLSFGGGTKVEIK

The whole VH of each variant is written out.
The Kd shown is the geometric mean over detected replicates; a lower Kd is a better binder.
Where no diploid with the target was found in any replicate, the entry reads "not detected": below detection, most likely a poor binder, though not proof of it.

| VH | apparent Kd | replicates with signal | control signals |
|---|---|---|---|
| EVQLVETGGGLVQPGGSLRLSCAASGFTLNSYGISWVRQAPGKGPEWVSVIYSDGRRTFPGDSVKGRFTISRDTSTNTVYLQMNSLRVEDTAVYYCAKGRAAGTFTPWGQGTLVTVSS | not detected | 0/3 | 1/9 |
| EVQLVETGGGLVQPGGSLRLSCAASGFTLNSYGISWVRQAPGKGPEWVSVIYNDGRRTFYGDNVKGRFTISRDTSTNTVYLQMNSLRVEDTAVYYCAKGMAAGTFDSWGQGTLVTVSS | 14 µM | 1/3 | 0/9 |
| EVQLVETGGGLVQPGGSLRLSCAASGKTLNSYGISWVRQAPGKGPEWVSVIYSDGRGTFYGDSVKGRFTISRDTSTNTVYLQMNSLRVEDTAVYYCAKGRAANTFDSWGQGTLVTVSS | 1.3 mM | 2/3 | 4/9 |
| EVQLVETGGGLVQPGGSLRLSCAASGFTLNSYGISWVRQAPGKGPEWVSYIYSDGYRTFYGDSVKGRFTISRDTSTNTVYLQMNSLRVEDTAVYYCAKGKAAGTFDSWGQGTLVTVSS | 36 µM | 3/3 | 3/9 |
| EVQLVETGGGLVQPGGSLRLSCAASGFTLNSYCIIWVRQAPGKGPEWVSVGYSDGRRTFYGDSVKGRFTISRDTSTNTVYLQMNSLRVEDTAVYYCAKGRAAGTFDSWGQGTLVTVSS | not detected | 0/3 | 1/9 |
| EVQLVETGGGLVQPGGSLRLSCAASGFTLNSYGISWVRQAPGKGPEWVSVSYSCGRRTFYGDSVKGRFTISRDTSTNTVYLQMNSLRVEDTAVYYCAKGRAAFTFDSWGQGTLVTVSS | 43 µM | 2/3 | 3/9 |
| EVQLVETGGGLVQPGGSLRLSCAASGFTHNSYGISWVRQAPGKGPEWVSVIYSAGRRTFYGDSVKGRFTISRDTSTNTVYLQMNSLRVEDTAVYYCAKGRAASTFDSWGQGTLVTVSS | 5.6 µM | 2/3 | 1/9 |
| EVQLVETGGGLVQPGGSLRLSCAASEFTLNSYGISWVRQAPGKGPEWVSVVYSDGRRTFYGDSVEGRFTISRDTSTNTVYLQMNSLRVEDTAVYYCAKGRAAGTFDSWGQGTLVTVSS | not detected | 0/3 | 1/9 |
| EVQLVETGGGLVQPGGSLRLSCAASGFTLNSTMISWVRQAPGKGPEWVSVVYSDGRRTFYGDSVKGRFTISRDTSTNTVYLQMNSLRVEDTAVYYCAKGRAAGTFDSWGQGTLVTVSS | 17 µM | 1/3 | 0/9 |
| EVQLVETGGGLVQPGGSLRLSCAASGFTLNSYGISWVRQAPGKGPEWVSVIYEDGRRTFYGDSVVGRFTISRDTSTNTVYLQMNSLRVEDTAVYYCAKGRAAGTFDCWGQGTLVTVSS | not detected | 0/3 | 0/9 |

The remaining entries, values ahead:

| apparent Kd | replicates with signal | control signals | VH |
|---|---|---|---|
| 56 µM | 1/3 | 0/9 | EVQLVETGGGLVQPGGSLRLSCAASGFTLNSYGISWVRQAPGKGPEWVSVIYRDGVRTFYGDSVKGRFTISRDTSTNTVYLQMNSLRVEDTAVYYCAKFRAAGTFDSWGQGTLVTVSS |
| 1.4 µM | 1/3 | 0/9 | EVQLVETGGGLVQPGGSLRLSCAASGFTLNFYGISWVRQAPGKGPEWVSQIYSMGRRTFYGDSVKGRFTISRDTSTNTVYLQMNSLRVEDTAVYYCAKGRAAGTFDSWGQGTLVTVSS |
| 28 µM | 1/3 | 0/9 | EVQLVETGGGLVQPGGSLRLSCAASGFTLYSYGHSWVRQAPGKGPEWVSVIYSDGRRTFYGDSVKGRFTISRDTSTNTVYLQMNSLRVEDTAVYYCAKGRAAGTFDSWGQGTLVTVSS |
| 300 µM | 2/3 | 5/9 | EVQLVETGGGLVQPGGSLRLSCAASGFTLNSYGISWVRQAPGKGPEWVSVIYSEGRRTEYGDSVKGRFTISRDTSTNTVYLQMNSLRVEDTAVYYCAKGRAAGVFDSWGQGTLVTVSS |
| not detected | 0/3 | 0/9 | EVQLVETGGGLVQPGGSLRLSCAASGFTLNSYGISWVRQAPGKGPEWVSVIYSPWRRTFYGDSVKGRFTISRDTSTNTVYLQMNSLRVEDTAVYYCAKGRAAGYFDSWGQGTLVTVSS |
| not detected | 0/3 | 2/9 | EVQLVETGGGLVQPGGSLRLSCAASGFTLNSYGISWVRQAPGKGPEWVSVIYYEGRRTFYGDSPKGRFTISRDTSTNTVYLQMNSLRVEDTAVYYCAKGRAAGTFDSWGQGTLVTVSS |
| not detected | 0/3 | 1/9 | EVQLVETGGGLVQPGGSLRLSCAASGFTENSYGISWVRQAPGKGPEWVSVIYSDGIRTFYGDSVKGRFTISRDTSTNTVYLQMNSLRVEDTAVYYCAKGRAAGTFDSWGQGTLVTVSS |
| 870 nM | 1/3 | 0/9 | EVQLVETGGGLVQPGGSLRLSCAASGFTLNSYGISWVRQAPGKGPEWVSVIYSDGQRTFYGISVKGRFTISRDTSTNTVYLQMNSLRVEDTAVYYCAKGRAAGTFDEWGQGTLVTVSS |
| 8.4 nM | 3/3 | 4/9 | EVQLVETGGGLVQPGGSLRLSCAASGFTLNKYGISWVRQAPGKGPEWVSVIYSDGRRTFYGESVKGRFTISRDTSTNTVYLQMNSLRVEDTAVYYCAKGRARGTFDSWGQGTLVTVSS |
| 1.5 µM | 1/3 | 2/9 | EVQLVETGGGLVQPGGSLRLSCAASGFTLNSYGISWVRQAPGKGPEWVSVIQHDGRMTFYGDSVKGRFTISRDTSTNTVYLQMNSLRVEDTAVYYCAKGRAAGTFDSWGQGTLVTVSS |
| 130 nM | 3/3 | 0/9 | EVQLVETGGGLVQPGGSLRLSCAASGFTLHSYGISWVRQAPGKGPEWVSVIYSDGRKTFYKDSVKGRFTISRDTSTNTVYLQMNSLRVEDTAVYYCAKGRAAGTFDSWGQGTLVTVSS |

Top 2 of the variants detected in all replicates, tightest first:

| VH | apparent Kd | replicates with signal | control signals |
|---|---|---|---|
| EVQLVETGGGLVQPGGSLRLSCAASGFTLNKYGISWVRQAPGKGPEWVSVIYSDGRRTFYGESVKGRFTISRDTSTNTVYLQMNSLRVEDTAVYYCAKGRARGTFDSWGQGTLVTVSS | 8.4 nM | 3/3 | 4/9 |
| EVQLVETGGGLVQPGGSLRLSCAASGFTLHSYGISWVRQAPGKGPEWVSVIYSDGRKTFYKDSVKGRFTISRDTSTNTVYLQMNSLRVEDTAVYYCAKGRAAGTFDSWGQGTLVTVSS | 130 nM | 3/3 | 0/9 |

Background: pairings of library AAYL49 with three empty control strains gave a value in 15% of cases (median 11 µM, 5th percentile 680 nM). Values in that range, when seen in few replicates, are hard to tell from nonspecific mating. For each scFv, signals with the empty controls are counted beside the result.